{"source": "patent US4066772A", "about": "“1,3-Dihydro-1-[3-(1-piperidinyl)propyl]-2H-benzimidazol-2-ones and related compounds” (Janssen Pharmaceutica N.V., priority 1976, dated 1978)", "test_system": "apomorphine-induced vomiting in dogs", "experiment": "Apomorphine-induced vomiting test in dogs (antiemetic activity, subcutaneous)", "assay_type": "in vivo", "conditions": "s.c., beagle dogs, apomorphine 0.31 mg/kg s.c. 1 hour after compound", "note": "Some compounds may have been tested in ways that are not shown here.", "data": [{"compound": "Cc1ccc2c(c1)[nH]c(=O)n2CCCN1CCC(n2c(=O)[nH]c3ccccc32)CC1.Cl.O", "values": [{"measurement": "ED50 (dose which protects 50% of the animals from emesis), Table II", "value": 0.20, "unit": "mg/kg"}]}, {"compound": "CC(C)O.Cc1cc2[nH]c(=O)n(CCCN3CCC(n4c(=O)[nH]c5ccccc54)CC3)c2cc1C", "values": [{"measurement": "ED50 (dose which protects 50% of the animals from emesis), Table II", "value": 0.45, "unit": "mg/kg"}]}, {"compound": "O=c1oc2ccccc2n1CCCN1CCC(n2c(=O)[nH]c3cc(Cl)ccc32)CC1", "values": [{"measurement": "ED50 (dose which protects 50% of the animals from emesis), Table IV", "value": 0.03, "unit": "mg/kg"}]}, {"compound": "CC(CN1CCC(n2c(=O)[nH]c3cc(Cl)ccc32)CC1)Cn1c(=O)[nH]c2ccccc21", "note": "(centres unmarked)", "values": [{"measurement": "ED50 (dose which protects 50% of the animals from emesis), Table II", "value": 0.06, "unit": "mg/kg"}]}, {"compound": "O=c1[nH]c2cc(Cl)ccc2n1C1CCN(CCCn2nnc3ccccc32)CC1", "values": [{"measurement": "ED50 (dose which protects 50% of the animals from emesis), Table IV", "value": 0.06, "unit": "mg/kg"}]}, {"compound": "O=c1[nH]c2cc(Cl)ccc2n1CCCN1CCC(n2c(=O)[nH]c3cc(Cl)ccc32)CC1", "values": [{"measurement": "ED50 (dose which protects 50% of the animals from emesis), Table II", "value": 0.12, "unit": "mg/kg"}]}, {"compound": "O=c1[nH]c2cc(Cl)ccc2n1CCCN1CCC(n2c(=O)[nH]c3ccccc32)CC1", "values": [{"measurement": "ED50 (dose which protects 50% of the animals from emesis), Table II", "value": 0.10, "unit": "mg/kg"}]}, {"compound": "Cc1ccc2c(c1)[nH]c(=O)n2CCCN1CCC(n2c(=O)[nH]c3cc(Cl)ccc32)CC1.Cl.O", "values": [{"measurement": "ED50 (dose which protects 50% of the animals from emesis), Table II", "value": 0.12, "unit": "mg/kg"}]}, {"compound": "O=c1sc2ccccc2n1CCCN1CCC(n2c(=O)[nH]c3cc(Cl)ccc32)CC1", "values": [{"measurement": "ED50 (dose which protects 50% of the animals from emesis), Table IV", "value": 0.001, "unit": "mg/kg"}]}, {"compound": "Cl.O.O=c1[nH]c2cc(F)ccc2n1CCCN1CCC(n2c(=O)[nH]c3cc(Cl)ccc32)CC1", "values": [{"measurement": "ED50 (dose which protects 50% of the animals from emesis), Table II", "value": 0.004, "unit": "mg/kg"}]}, {"compound": "C=C(C)n1c(=O)n(CCCN2CCC(n3c(=O)[nH]c4cc(Cl)ccc43)CC2)c2ccccc21", "values": [{"measurement": "ED50 (dose which protects 50% of the animals from emesis), Table II", "value": 0.20, "unit": "mg/kg"}]}, {"compound": "C=CCn1c(=O)n(CCCN2CCC(n3c(=O)[nH]c4cc(Cl)ccc43)CC2)c2ccccc21", "values": [{"measurement": "ED50 (dose which protects 50% of the animals from emesis), Table II", "value": 0.12, "unit": "mg/kg"}]}, {"compound": "Cn1c(=O)n(CCCN2CCC(n3c(=O)[nH]c4cc(Cl)ccc43)CC2)c2ccccc21", "values": [{"measurement": "ED50 (dose which protects 50% of the animals from emesis), Table II", "value": 0.16, "unit": "mg/kg"}]}, {"compound": "O=c1[nH]c2ccccc2n1CCCN1CCC(n2c(=O)[nH]c3ccccc32)CC1", "values": [{"measurement": "ED50 (dose which protects 50% of the animals from emesis), Table II", "value": 0.02, "unit": "mg/kg"}]}]}
